This assay concerns rats. Briefly: Ectopic (subcutaneous) bone formation in the rat. As to conditions: subcutaneous implant in rats, two weeks; 250 μg/ml of precursor solution. Format: in vivo. The method, then: Materials were made essentially according to Example 3, but under sterile conditions and with PEG-3500-3A, a molar ratio of acrylates: thiols of 1:1, and a molar ratio of GCGYGRGDSPG: acrylates of 1/12. At the time of gel formation, a recombinant human growth factor, BMP-2, which induces bone formation was added to the precursor solution at a concentration of 250 μg/ml of precursor solution. Precursor solution was added to hemostatic collagen sponges (Helistat; 8 mm diameter, approximately 3.5 mm height). Precursor solution was added until the sponges could not absorb more solution (approximately 160 μl). The gels were allowed to solidify in the sponges. Gels were briefly washed with PBS then kept minimally wet until implantation subcutaneously in rats. The implants were removed after two weeks, fixed, and hematoxylin and eosin stained.

B1: BMP-2: recombinant human growth factor which induces bone formation, delivered in PEG-3500-3A gel (protein, UniProt P12643 283-396, looked up)
Bone morphogenetic protein 2: QAKHKQRKRLKSSCKRHPLYVDFSDVGWNDWIVAPPGYHAFYCHGECPFPLADHLNSTNHAIVQTLVNSVNSKIPKACCVPTELSAISMLYLDENEKVVLKNYQDMVVEGCGCR
As to B1, the bone formation entry is reported as “promoted bone formation”.

Values taken from patent US7291673B2, “Conjugate addition reactions for the controlled delivery of pharmaceutically active compounds” (Eidgenossiche Technische Hochschule Zurich, priority 2000, dated 2007).
